# Laboratory results reported in patent US20150038435A1, “N-TERMINALLY MODIFIED OLIGOPEPTIDES AND USES THEREOF” (Novo Nordisk A/S, priority 2012, published 2015).
# Experiment: Hydrophobicity: retention time during reverse phase HPLC
# Type: physicochemical
# Conditions: Acquity CSH C18; pH 7.2 buffer/CH3CN gradient; 40° C.
# Text: The retention time (RT) during reverse phase HPLC was taken as a measure of hydrophobicity of an N-terminally modified peptide or oligopeptide of the invention, where the connection is: The longer the RT, the more hydrophobic N-terminally modified peptide or oligopeptide. The following running conditions were applied during HPLC analysis:
# Buffer B: 70% (v/v) aq. CH3CN
row,Substance,RT (retention time during reverse phase HPLC as a measure of hydrophobicity)
1,N-dodecanoyl-Gly-Ala-Pro-Tyr-OH [Example 37],5.41 min
2,N-dodecanoyl-Ile-Ala-Ala-Pro-Tyr-OH [Example 40],7.77 min
3,N-dodecanoyl-βAla-βAla-Pro-Phe-Pro-OH [Example 6],5.96 min
